The record followed here is US12559487B2, “Crosslinked optically active secondary amine derivative” (Sumitomo Pharma Co., Ltd., priority 2019, dated 2026).

In this assay the test system is MV4; 11 cells. Kind of assay: Test 1: Test for evaluating the inhibition of cell proliferation. Format: cell-based. The conditions noted are these: for IC50: cultured for 7 days, PrestoBlue cell viability. As to the method: MV4; 11 cells were obtained from American Type Culture Collection (ATCC). The cells were cultured at 37° C. in the presence of 5% CO2 in RPMI 1640 medium containing 10% fetal bovine serum and 1% penicillin/streptomycin.
The cells were plated to a 96-well plate in 2000 cells/well, each test compound was added thereto to adjust the final concentration of DMSO to 0.1% of DMSO, and the cells were cultured for 7 days. After the cultivation, the cell viability was calculated with PrestoBlue™ Cell Viability Reagent (Invitrogen, A13261).

A word on the IC50: it is the point on the concentration scale where inhibition reaches its midpoint. Read a high IC50 as weaker potency in that assay. `CC(C)N(C)C(=O)c1cc(F)ccc1-n1cc(C2CCCN(C(=O)[C@H]3NC4CCC3CC4)CCC2)c2ccncc21` [Example 15, 2-(3-{1-[(3S)-2-azabicyclo[2.2.2]octane-3-carbonyl]azocan-5-yl}-1H-pyrrolo[2,3-c]pyridin-1-yl)-5-fluoro-N-methyl-N-(propan-2-yl)benzamide] registered an IC50 of 0.42 µM.

`CC(C)N(C(=O)c1cc(F)ccc1-n1cc(C2CCCN(C(=O)[C@H]3NC4CCC3CC4)CCC2)c2ccncc21)C(C)C` [Example 17, 2-(3-{1-[(3S)-2-azabicyclo[2.2.2]octane-3-carbonyl]azocan-5-yl}-1H-pyrrolo[2,3-c]pyridin-1-yl)-5-fluoro-N,N-di(propan-2-yl)benzamide] had an IC50 of 0.83 µM.

`CC(C)N(C(=O)c1cc(F)ccc1-n1cc(C2CC3CCC(C2)N3C(=O)[C@H]2NC3CCC2CC3)c2ccncc21)C(C)C` (stereo partly drawn) [Example 22, 2-(3-{8-[(3S)-2-azabicyclo[2.2.2]octane-3-carbonyl]-8-azabicyclo[3.2.1]octan-3-yl}-1H-pyrrolo[2,3-c]pyridin-1-yl)-5-fluoro-N,N-di(propan-2-yl)benzamide] came in with an IC50 of 0.064 µM. In addition, the “cell proliferation inhibition activity” value (summary in words) is reported as “potent cell proliferation inhibition activity”.
